The text below walks through data of patent publication US20090156471A1, “Use of anti-amyloid agents for treating and typing pathogen infections” (RAMOT AT TEL AVIV UNIVERSITY LTD., priority 2005, published 2009).

This series in a line: TEM analysis of peptide self-assembly into fibrillar structures. Particulars: FIG. 1c. The series is classed as physicochemical. On the procedure:
TEM analysis—In all examined cases, peptides were dissolved in water to a concentration of 10 to 50 mg/ml and incubated at room-temperature (RT). Fresh stocks were prepared for each and every experiment. […] Following 1 minute, excess fluid was removed, and the grid was then negatively stained with 10 μl of 2% uranyl-acetate in water. Following 2 minutes, excess fluid was removed from the grid. Samples were viewed in JEOL 1200 EX transmission electron microscope. In the experiments shown, 50 mg/ml peptides were used and micrographs were taken following 1 week. Bar represents 100 nm.

Turning to GQNHGG, the “aggregation potential (amount of aggregates) of scrambled QHGGGN sequences” value was “highly aggregative and much more abundant”.
